From ChEMBL document CHEMBL1140814 (Bioorg Med Chem Lett, 2008)

Sequences of proteins named here, by UniProt entry; tags and fusion partners are left off. A change or cut given only in a name is not applied to a line headed by its entry.
UniProt P20309, whole entry: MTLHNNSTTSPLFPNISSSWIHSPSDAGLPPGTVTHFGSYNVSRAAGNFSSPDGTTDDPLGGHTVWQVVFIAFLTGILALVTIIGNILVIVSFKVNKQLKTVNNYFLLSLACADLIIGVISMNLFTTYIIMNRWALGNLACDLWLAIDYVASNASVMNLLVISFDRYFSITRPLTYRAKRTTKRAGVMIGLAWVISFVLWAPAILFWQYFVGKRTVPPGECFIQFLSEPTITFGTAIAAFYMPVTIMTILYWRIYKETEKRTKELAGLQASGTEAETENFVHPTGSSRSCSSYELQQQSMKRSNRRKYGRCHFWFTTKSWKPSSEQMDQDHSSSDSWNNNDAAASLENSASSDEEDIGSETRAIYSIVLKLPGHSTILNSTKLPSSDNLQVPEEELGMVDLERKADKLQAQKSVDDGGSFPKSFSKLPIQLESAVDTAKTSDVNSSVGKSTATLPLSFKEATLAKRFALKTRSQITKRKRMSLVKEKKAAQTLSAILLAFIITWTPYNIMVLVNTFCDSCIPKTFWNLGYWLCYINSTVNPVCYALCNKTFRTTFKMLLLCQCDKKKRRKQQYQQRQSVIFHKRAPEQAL
UniProt P11229: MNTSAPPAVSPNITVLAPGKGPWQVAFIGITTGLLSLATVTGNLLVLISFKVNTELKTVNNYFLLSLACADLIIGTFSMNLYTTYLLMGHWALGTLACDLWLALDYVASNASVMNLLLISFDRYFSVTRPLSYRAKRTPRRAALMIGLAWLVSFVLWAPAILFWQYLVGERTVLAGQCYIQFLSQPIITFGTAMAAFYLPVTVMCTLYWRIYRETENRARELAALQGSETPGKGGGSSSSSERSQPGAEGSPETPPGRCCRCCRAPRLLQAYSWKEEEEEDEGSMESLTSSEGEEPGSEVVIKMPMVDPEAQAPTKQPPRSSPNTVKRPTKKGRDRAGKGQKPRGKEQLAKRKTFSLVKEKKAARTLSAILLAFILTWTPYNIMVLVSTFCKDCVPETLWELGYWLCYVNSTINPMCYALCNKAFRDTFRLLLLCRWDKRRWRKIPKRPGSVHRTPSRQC
UniProt P08912, whole entry: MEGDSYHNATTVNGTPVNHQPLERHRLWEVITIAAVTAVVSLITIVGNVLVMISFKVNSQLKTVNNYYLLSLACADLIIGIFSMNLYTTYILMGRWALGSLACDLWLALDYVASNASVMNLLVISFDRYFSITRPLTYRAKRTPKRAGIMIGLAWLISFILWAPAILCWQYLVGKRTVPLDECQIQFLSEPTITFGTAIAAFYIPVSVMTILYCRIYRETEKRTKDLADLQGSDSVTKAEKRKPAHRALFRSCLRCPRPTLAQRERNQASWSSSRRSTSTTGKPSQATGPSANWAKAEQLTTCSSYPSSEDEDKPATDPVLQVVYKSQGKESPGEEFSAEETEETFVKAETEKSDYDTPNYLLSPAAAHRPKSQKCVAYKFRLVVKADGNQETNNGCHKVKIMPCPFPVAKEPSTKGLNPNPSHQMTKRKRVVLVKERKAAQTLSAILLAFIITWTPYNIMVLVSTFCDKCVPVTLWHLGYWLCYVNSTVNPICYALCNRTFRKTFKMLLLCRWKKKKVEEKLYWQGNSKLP

Experiments:
[1] = target: Muscarinic acetylcholine receptor M3 (Homo sapiens, UniProt P20309); experiment: biochemical; assay type: cell-based, CHO
[2] = target: Muscarinic acetylcholine receptor M1 (Homo sapiens, UniProt P11229); experiment: biochemical; assay type: cell-based, CHO
[3] = target: Muscarinic acetylcholine receptor M5 (Homo sapiens, UniProt P08912); experiment: Displacement of [3H]NMS from human cloned muscarinic M5 receptor expressed in CHO cells; assay type: cell-based

Compound: C[C@@H]1COC[C@@H](C[N+](C)(C)C)O1.[I-]
- Ki [1]: 61.7 µM

Compound: CC1COCC(C[N+](C)(C)C)O1.[I-] (racemic; form 1)
- Ki [1]: 7.59 µM
- Ki [2]: 30.2 µM

Compound: C[C@H]1COC[C@H](C[N+](C)(C)C)O1.[I-]
- Ki [1]: 23.4 µM
- Ki [3]: 30.2 µM
- Ki [2]: 74.1 µM

Compound: C[C@@H]1COC[C@H](C[N+](C)(C)C)O1.[I-]
- Ki [1]: 36.3 µM
- Ki [2]: > 100 µM

Compound: CC1COCC(C[N+](C)(C)C)O1.[I-] (racemic; form 2)
- Ki [1]: 35.5 µM
- Ki [2]: > 100 µM

Compound: C[C@H]1COC[C@@H](C[N+](C)(C)C)O1.[I-]
- Ki [1]: 3.39 µM
- Ki [2]: 12.9 µM
